Values quoted from earlier work, collected in paper PMC12621185, “Design, Syntheses, and Pharmacological Evaluations of Core Ring Expanded Fentanyl Analogues as Potential Counteracting Agents Against Fentanyl Induced Respiratory Depression” (2025).

Experiments:
Swiss Webster mice [1] = details: warm-water tail immersion, previously reported data, ref number not printed (Table 1 footnote a)
Swiss Webster mice [2] = details: warm-water tail immersion, previously reported data, ref number not printed (Table 1 footnote a); remark: listed apart in the source

## C=CCN1CC[C@]23c4c5ccc(O)c4O[C@H]2C(=O)CC[C@@]3(O)[C@H]1C5
Swiss Webster mice [1]
  AD50 (95% CL) against 10 mg/kg morphine: 0.05 (0.03–0.09) mg/kg
Swiss Webster mice [2]
  AD50 (95% CL) against 0.1 mg/kg fentanyl: 0.005 (0.002–0.009) mg/kg
